Test results published in PMC9649909, “Wnt-pathway inhibitors with selective activity against triple-negative breast cancer: From thienopyrimidine to quinazoline inhibitors” (Frontiers in Pharmacology, 2022).

Tested on: non-cancerous breast epithelial cell line MCF10a
Assay: MTT survival assay MCF10a
Format: cell-based
Conditions: Table S2
Method: Indicated TNBC cell lines were detached and resuspended at 120,000 cells/ml and added into each well of a transparent 384-well plate in the final volume of 20 µl/well. The cells were maintained in DMEM containing 10% FBS at 37°C, 5% CO2 overnight. Next day, the medium in each well was replaced by 40 μl of the fresh one containing the indicated concentrations of compounds. In case of drug combination experiments, each compound dilution was delivered in corresponding well in 20 μl of medium. […] After incubation for 3–4 days, depending on the cell line, the medium in each well was replaced by 25 μl of 0.5 mg/ml Thiazolyl blue solution in 1xPBS following by incubation for 3 h at 37°C. Then the solution was removed and 25 μl DMSO was added into each well. Absorbance at 510 nm was measured in a Tecan Infinite M200 PRO plate reader.

SMILES: Clc1ccc(CNc2ncnc3ccccc23)cc1 [Compound 9e, N-(4-chloro)quinazolin-4-amine]
- MTT MCF10 Comments: Inactive
